SMILES strings stand for the structures.

Sequences of proteins named here, by UniProt entry; tags and fusion partners are left off.
UniProt P35364, whole entry: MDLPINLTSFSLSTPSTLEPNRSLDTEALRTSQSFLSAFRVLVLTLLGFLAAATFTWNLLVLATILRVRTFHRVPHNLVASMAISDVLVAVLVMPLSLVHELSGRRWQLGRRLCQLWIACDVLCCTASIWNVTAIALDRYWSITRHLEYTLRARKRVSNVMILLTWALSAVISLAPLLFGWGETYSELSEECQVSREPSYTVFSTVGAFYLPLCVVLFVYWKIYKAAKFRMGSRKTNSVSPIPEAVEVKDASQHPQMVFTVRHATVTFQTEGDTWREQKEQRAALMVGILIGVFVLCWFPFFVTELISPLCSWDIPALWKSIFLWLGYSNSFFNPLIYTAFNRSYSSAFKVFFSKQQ
UniProt P35365, whole entry: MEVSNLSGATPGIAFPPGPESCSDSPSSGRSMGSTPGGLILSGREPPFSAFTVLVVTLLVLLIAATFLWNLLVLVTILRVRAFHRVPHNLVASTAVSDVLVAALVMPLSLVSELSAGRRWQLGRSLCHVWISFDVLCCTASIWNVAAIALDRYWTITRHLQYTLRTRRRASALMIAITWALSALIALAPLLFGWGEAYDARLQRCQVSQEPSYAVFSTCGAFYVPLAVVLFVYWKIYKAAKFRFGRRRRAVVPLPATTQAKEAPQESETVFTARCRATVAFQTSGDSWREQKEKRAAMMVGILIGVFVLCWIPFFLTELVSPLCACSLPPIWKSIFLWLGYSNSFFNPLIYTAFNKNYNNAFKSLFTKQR

Test [1] addresses 5-hydroxytryptamine receptor 5A (Rattus norvegicus, UniProt P35364).
The target in test [2] is 5-hydroxytryptamine receptor 5B (Rattus norvegicus, UniProt P35365).

For orientation: Ki means the dissociation constant of the complex between target and ligand, obtained from inhibition or displacement. In test [1], `CN1C[C@H](C(=O)N[C@]2(C)O[C@@]3(O)[C@@H]4CCCN4C(=O)[C@H](Cc4ccccc4)N3C2=O)C=C2c3cccc4[nH]cc(c34)C[C@H]21` [12'-hydroxy-2'-methyl-5'alpha-(phenylmethyl)ergotaman-3',6',18-trione] came in with an inhibition constant Ki of 15.7 nM.

For the compound `NCCc1c[nH]c2ccc(O)cc12` [[3H]-5-HT], the Ki in test [2] came out at 239 nM.

(Values after BindingDB's records for doi:10.1073/pnas.90.8.3452 (The Scripps Research Institute, 1993).)
